Assay results taken from PubChem BioAssay AID2288 (National Center for Advancing Translational Sciences (NCATS), 2010).
The list shows a part of the results, in another mix than the full data. Some structures show a salt or complex split into parts, the way the source records it. Calls of active or inactive are those of the source. Calls follow the shape of the dose curve; as a rule, active = well fitted curve in the direction sought with a large enough effect; inconclusive = small, poorly fitted or top-dose-only effect, or another doubt; inactive = no such curve, though single readings can be large or run the other way.

Experiment: qHTS Assay for Modulators of miRNAs and/orActivators of miR-21;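 also: % of control where 0% means no effect; miR-21 action dims this reporter so a rising signal means less miR-21 action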
Conditions: HeLa miR-21 FLuc reporter, luciferase, 48 h; at 38.3 µM (top of the series)

SMILES | activity change, positive = activation
CCOC(=O)C(CC)C1=NC(C)(C)Cc2ccccc21.O=[N+]([O-])c1cc([N+](=O)[O-])c(O)c([N+](=O)[O-])c1 (configuration not stated) | inactive: -3.23%
CC(C)(C)OC(=O)N1CCC(N(C(=O)c2ccccc2)c2ccc(Cl)cc2)CC1 | inactive: 18.9%
O=C(NCC1(N2CCOCC2)CCCCC1)c1ccc([N+](=O)[O-])cc1 | inactive: -2.09%
N#Cc1ccc(C(=O)NCC2(N3CCCCC3)CCCCC2)cc1 | inactive: 4.62%
O=C(NCC1(N2CCOCC2)CCCCC1)c1ccccc1[N+](=O)[O-] | inactive: -6.08%
c1ccc(CN2CCC(Nc3ccccc3)CC2)cc1 | inactive: -1.47%
CCCN1CCC(Nc2cc(OC)cc(OC)c2)CC1 | inactive: -1.03%
O=C(NCC1(N2CCOCC2)CCCCC1)c1ccccc1 | inactive: -2.85%
CN(C)C1(CNC(=O)c2cccc(C#N)c2)CCCCC1 | inactive: -3.49%
COc1ccc(C(=O)NCC2(N3CCOCC3)CCCCC2)cc1OC | inactive: -3.84%
O=C(OC1CN2CCC1CC2)C1c2ccccc2C=Cc2ccccc21 (configuration not stated) | inactive: 3.4%
O=C(O)c1cccc(Nc2c([N+](=O)[O-])cc([N+](=O)[O-])cc2[N+](=O)[O-])c1 | inactive: 1.94%
N/C(=N\O)c1c(N)no[n+]1[O-] | inactive: -1.7%
CCOC(=O)N1CCC(Nc2ccc(C)cc2)CC1 | inactive: -1.7%
CCCOc1ccc(C(=O)NCC2(N(C)C)CCCCC2)cc1 | inactive: -2.64%
CC(C)(C)OC(=O)N1CCC(Nc2ccccc2)CC1 | inactive: 0.672%
O=C(O)C1(Nc2ccccc2)CCN(Cc2ccccc2)CC1 | inactive: -0.709%
CCOc1ncccc1C(=O)NCC1(N2CCOCC2)CCCCC1 | inactive: -2.53%
CN1CCC(Nc2ccc(F)c(Cl)c2)CC1 | inactive: -0.344%
CCCOc1ccc(C)cc1CN(CCCl)CCCl | inactive: 0.221%
CN1CCC(Nc2ccc(Cl)cc2)CC1 | inactive: -3.08%
CCC(CO)(C(=O)OC1CN2CCC1CC2)c1ccccc1 (configuration not stated) | inactive: 0.0138%
COc1cc(C(=O)NCC2(N3CCOCC3)CCCCC2)cc(OC)c1OC | inactive: 5.03%
COc1cc(OC)cc(C(=O)NCC2(N3CCOCC3)CCCCC2)c1 | inactive: -2.24%

SMILES | activity change, positive = activation
COc1cccc(C(=O)N(c2cc(C)cc(C)c2)C2CCN(C(=O)OC(C)(C)C)CC2)c1 | inactive: 0.0961%
Fc1ccccc1NC1CCN(Cc2ccccc2)CC1 | inactive: -3.46%
COc1cc(OC)cc(C(=O)NCC2(N3CCCCC3)CCCCC2)c1 | inactive: 1.31%
CN(C)C1(CNC(=O)c2ccc(C(C)(C)C)cc2)CCCCC1 | inactive: -10.4%
CC(C)(C)c1ccc(C(=O)NCC2(N3CCOCC3)CCCCC2)cc1 | inactive: 2.3%
CN(C)c1ccc(C(=O)NCC2(N3CCCCC3)CCCCC2)cc1 | inactive: -0.742%
Cc1ccccc1C(=O)NCC1(N(C)C)CCCCC1 | inactive: -1.49%
CCN1CCC(Nc2cccc(F)c2)CC1 | inactive: -12%
O=C(NCC1(N2CCCCC2)CCCCC1)c1ccc(F)cc1 | inactive: 0.67%
COc1ccc(NC2CCN(CCc3ccccc3)CC2)c(OC)c1 | inactive: -7.12%
CCOC(=O)N1CCC(Nc2ccc(F)cc2)CC1 | inactive: -0.655%
COc1ccccc1C(=O)NCC1(N2CCOCC2)CCCCC1 | inactive: -5.98%
CCOc1ccc(C)cc1CN(CCCl)CCCl | inactive: -2.72%
O=C(NCC1(N2CCOCC2)CCCCC1)c1ccc(Cl)cc1 | inactive: 26.2%
CCOC(=O)N1CCC(Nc2cccc(C)c2)CC1 | inactive: -2.45%
COc1cc(C(=O)NCC2(N(C)C)CCCCC2)ccc1OC(F)F | inactive: -4.32%
Cc1ccc(OCC(C)C)c(CN(CCCl)CCCl)c1 | inactive: 0.387%
CSc1ccccc1C(=O)NCC1(N2CCCCC2)CCCCC1 | inactive: -0.244%
O=C(NCC1(N2CCCCC2)CCCCC1)c1ccc(=O)[nH]c1 | inactive: 3.58%
COc1ccc(C(=O)NCC2(N3CCCCC3)CCCCC2)cc1 | inactive: -2.39%
COc1ccc(C(=O)NCC2(N3CCCCC3)CCCCC2)c(OC)c1OC | inactive: 14.3%
CC(C)(C)OC(=O)N1CCC(N(C(=O)c2ccccc2)c2ccc(F)cc2)CC1 | inactive: 0.0178%
CCOC(=O)N1CCC(Nc2ccc(OC)cc2)CC1 | inactive: 4.89%
N#CC1(Nc2ccccc2)CCN(Cc2ccccc2)CC1 | inactive: 1.54%

SMILES | activity change, positive = activation
O=C(OC1CN2CCC1CC2)C1c2ccccc2Oc2ccccc21 (configuration not stated) | inactive: -4.91%
O=C(NCC1(N2CCOCC2)CCCCC1)c1cc2ccccc2o1 | inactive: -2.25%
Cc1cc(C)cc(N(C(=O)c2ccccc2)C2CCN(C(=O)OC(C)(C)C)CC2)c1 | inactive: -0.0503%
COc1cc(OC)c(C(=O)NCC2(N(C)C)CCCCC2)cc1OC | inactive: 0.343%
COc1ccc(CN(CCCl)CCCl)cc1Cl | inactive: -0.298%
O=[N+]([O-])c1cc([N+](=O)[O-])c(OC2CCCCC2O)c([N+](=O)[O-])c1 (configuration not stated) | inactive: -1.37%
CN(C)c1cccc(C(=O)NCC2(N3CCCCC3)CCCCC2)c1 | inactive: 1.86%
CC(C)c1ccc(NC2CCN(C(=O)OC(C)(C)C)CC2)cc1 | inactive: -29%
CCCCOc1ccccc1C(=O)NCC1(N2CCOCC2)CCCCC1 | inactive: 9.81%
O=C(NCC1(N2CCOCC2)CCCCC1)c1ccccc1Br | inactive: 3.51%
CCCOc1ccc(C(=O)NCC2(N(C)C)CCCCC2)cc1OC | inactive: -5.91%
COc1ccc2c(c1O)-c1c(O)c(OC)cc3c1[C@H](C2)[N+](C)(C)CC3.O=[N+]([O-])c1cc([N+](=O)[O-])c([O-])c([N+](=O)[O-])c1[O-] | inactive: 3.33%
O=C(OC1CN2CCC1CC2)c1ccc([N+](=O)[O-])cc1 (configuration not stated) | inactive: -0.862%
O=C(NCC1(N2CCCCC2)CCCCC1)c1cccc([N+](=O)[O-])c1 | inactive: 1.02%
CCOc1ccc(C(=O)NCC2(N3CCOCC3)CCCCC2)cc1 | inactive: -3.23%
CCN1CCC(Nc2ccc(Cl)cc2)CC1 | inactive: -18.7%
N#CC1(Nc2ccccc2)CCN(CCc2ccccc2)CC1 | inactive: -15.5%
O=C(NCC1(N2CCCCC2)CCCCC1)c1ccc(OC(F)F)cc1 | inactive: -0.483%
CN1CCN(CCOC(=O)C(O)(c2ccccc2)c2ccccc2)CC1 | inactive: -1.73%
COc1ccc(NC2CCN(C(=O)OC(C)(C)C)CC2)cc1 | inactive: -9.11%
COc1cc(C(=O)NCC2(N3CCCCC3)CCCCC2)ccc1OC(F)F | inactive: 0.84%
O=C(NCC1(N2CCOCC2)CCCCC1)c1cc(=O)[nH]c2ccccc12 | inactive: 7.02%
CCCOc1cccc(C(=O)NCC2(N3CCOCC3)CCCCC2)c1 | inactive: 1.9%
O=C(NCC1(N2CCCCC2)CCCCC1)c1cccc(C(F)(F)F)c1 | inactive: 1.16%
